This passage reports free radical formation results from US20100204328A1, “Solution and Method to Reduce, Treat and/or Prevent Oxidative Stress and Cell Activation” (priority 2006, published 2010).

This experiment relates to White blood cells (WBC). The experiment can be described thus: Inhibition of cell activation/ROS-generation by addition of free radical scavengers (H2DCF-DA fluorescence). Type of experiment: cell-based, human. The conditions noted are these: WBC preincubated 30-60 minutes, PMA or LPS stimulus, FIG. 15. An excerpt: Phorbol-myristate-acetate (PMA) was used as a very effective cell activation agent to induce ROS formation and other cell activation markers, see FIG. 14. Albumin was used as a macromolecular scavenger as known for high SH content and binding sites for radicals of different chemical species (O2, H2O2, ONOO2, HOCl). Other macromolecules with SH sites could also be applied.
White blood cells (WBC) were isolated from freshly donated human whole blood. This was done by collecting whole blood from healthy donors on Heparin anticoagulation. Leukocytes were isolated out of the whole blood with the help of an isolation gradient (Polymorphprep). Isolated Leukocytes were diluted in PBS or RPMI 1640 cell culture media and a concentration of 2×10^6/ml was chosen. The cells were stored at 37° in 5% CO2. The cells were preincubated with the substances at 37° C. for 30-60 minutes. […] For ROS-measurement a fluorescence dye (dichlorodihydrofluorescein-diacetate, H2DCF-DA) was added at 10 μM final concentration. The cells were incubated with the substance, the fluorescence dye and the activator for 2 hrs and the fluorescence intensity kinetics was measured over time. To compare the result between two substances, the fluorescence intensity at a certain time point, e.g. 30 minutes) was recorded. For comparison the fluorescence at a certain time is shown in the diagram in FIG. 15.

As for “albumin: macromolecular scavenger known for high SH content and binding sites for radicals”, the free radical formation entry is given as “increasing the albumin concentration doesn't enable further signal reduction”.
